Data from patent US5516782A, “New meso-azacyclic aromatic acid amides and esters as novel serotonergic agents” (G. D. Searle & Co., priority 1995, dated 1996).

Amino acid sequences for entries named in this document (tags omitted). Residues count along the entry.
UniProt P35563, 24-483: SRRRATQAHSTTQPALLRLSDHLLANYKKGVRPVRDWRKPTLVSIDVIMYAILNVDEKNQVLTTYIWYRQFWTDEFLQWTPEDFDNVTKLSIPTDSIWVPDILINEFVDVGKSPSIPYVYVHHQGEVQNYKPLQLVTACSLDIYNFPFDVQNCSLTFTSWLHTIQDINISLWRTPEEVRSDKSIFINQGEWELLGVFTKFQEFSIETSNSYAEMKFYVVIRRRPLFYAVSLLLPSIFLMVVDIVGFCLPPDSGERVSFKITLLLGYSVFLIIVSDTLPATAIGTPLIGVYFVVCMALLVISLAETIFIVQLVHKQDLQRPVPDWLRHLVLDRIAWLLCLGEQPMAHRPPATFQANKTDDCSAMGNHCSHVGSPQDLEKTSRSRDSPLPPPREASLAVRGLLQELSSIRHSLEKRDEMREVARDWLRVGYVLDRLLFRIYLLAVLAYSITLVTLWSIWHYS

Biological target: T1, 5-HT3 receptor (Rattus norvegicus, UniProt P35563)
T1 construct: Brain cortices are obtained from male rats and a membrane fraction prepared by standard techniques; from tissue; host or cells: rat brain cortex membranes
Assay: Serotonin (5-HT3) radioligand receptor binding assay ([3H]-GR65630, rat brain cortex membranes)
Protocol: 5-HT3 antagonism can be determined by the radioligand receptor binding assay as described herein and in the in vivo Bezold-Jarisch reflex procedure.
GR65630 binds to the 5-HT3 receptor. Brain cortices are obtained from male rats and a membrane fraction prepared by standard techniques. 0.04 mg of membrane prep is incubated with 0.2 nM [^3 H]-GR656630 for 60 minutes at 22° C. […] Membranes are filtered and washed 3 times and the filters are counted to determine [3H]-GR65630 specifically bound.*
Kilpatrick G. J., Jones B. J. and Tyers M. B. Identification and distribution of 5-HT3 receptors in rat brain using radioligand binding. Nature, 330: 746-748, 1987.

NCCc1c[nH]c2ccc(O)cc12 [Example 5-HT, serotonin]
Ki: 0.39 nM
